From PubChem BioAssay AID588489 (Sanford-Burnham Center for Chemical Genomics, 2011)
This is a selection; strong and weak results do not stand in their true shares. Activity calls are given as the source filed them. No stated cut-off is given here; in the data, active means inhibition above about 35% (passing the limit was not always enough); inactive means the rest.

The chains behind the UniProt entries cited, without tags or fusion partners.
UniProt P11940, whole entry, looked up: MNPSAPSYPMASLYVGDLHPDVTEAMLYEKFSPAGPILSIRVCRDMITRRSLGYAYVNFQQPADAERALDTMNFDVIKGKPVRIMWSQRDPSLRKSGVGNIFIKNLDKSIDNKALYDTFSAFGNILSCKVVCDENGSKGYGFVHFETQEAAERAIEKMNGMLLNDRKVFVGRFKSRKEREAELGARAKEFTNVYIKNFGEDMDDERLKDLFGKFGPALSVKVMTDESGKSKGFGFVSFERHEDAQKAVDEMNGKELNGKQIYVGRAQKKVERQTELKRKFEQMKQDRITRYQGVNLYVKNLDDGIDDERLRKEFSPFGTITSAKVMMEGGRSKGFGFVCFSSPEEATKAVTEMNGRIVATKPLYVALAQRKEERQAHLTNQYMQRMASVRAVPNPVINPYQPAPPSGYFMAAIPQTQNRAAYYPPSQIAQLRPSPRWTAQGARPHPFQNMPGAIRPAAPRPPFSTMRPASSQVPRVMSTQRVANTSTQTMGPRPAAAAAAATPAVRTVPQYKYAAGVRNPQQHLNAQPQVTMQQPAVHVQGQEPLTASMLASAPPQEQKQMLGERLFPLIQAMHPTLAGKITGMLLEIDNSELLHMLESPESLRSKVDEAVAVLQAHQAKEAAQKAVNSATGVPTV

target: Polyadenylate-binding protein 1 (Homo sapiens) (UniProt P11940); assay: PAM2 peptide displacement from PABP1 MLLE – biochemical, fluorescence polarization, FITC-PAM2, GST-MLLE, primary screen (AID 588489); settings: at 20 µM, stronger effect = higher value;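 further: plate controls were DMSO wells with GST-MLLE for no effect and wells lacking GST-MLLE protein for full effect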

Row | Structure (SMILES) | inhibition
1 | O=C(/C=C/c1ccccc1)OC1CN2CCC1CC2 (centres undefined) | inactive: -4.78%
2 | CCCC1OP(=O)(Nc2ccccc2)OCC1CC (centres undefined) | inactive: 0.51%
3 | Cc1ccc(S(=O)(=O)N(CCCN)CCCc2c(C)nc(N)[nH]c2=O)cc1 | inactive: 3.41%
4 | O=P1(Nc2ncccn2)COc2ccccc2OC1 | inactive: -0.69%
5 | Nc1cccc([As](=O)(O)c2ccccc2)c1 | inactive: -5.16%
6 | O=P1(Nc2ccc(Br)cn2)COc2ccccc2OC1 | inactive: -8.83%
7 | NS(=O)(=O)c1cccc(NC(=O)COC(=O)C(O)(c2ccccc2)c2ccccc2)c1 | inactive: -6.88%
8 | Cc1ccc(OCC(=O)OC2CN3CCC2CC3)cc1 (centres undefined) | inactive: 7.63%
9 | O=[As](O)(c1cccs1)c1cccs1 | inactive: -1.9%
10 | CCOP1(=S)c2c(C)nn(CCC#N)c2N=C(c2ccccc2F)N1C (centres undefined) | inactive: 14.5%
11 | O=P(Nc1nccs1)(c1ccccc1)c1nc2ccccc2s1 (centres undefined) | inactive: 17.4%
12 | O=P(Nc1nccs1)(Oc1ccccc1)Oc1ccccc1 | inactive: -7.62%
13 | CS(=O)(=O)c1cc([N+](=O)[O-])c2no[n+]([O-])c2c1 | inactive: 15.2%
14 | Nc1ccccc1[As](=O)(O)c1ccccc1 | inactive: 9.53%
15 | O=C(O)COc1ccc([As](=O)(O)O)cc1[N+](=O)[O-] | inactive: -5.06%
16 | NC(=O)Nc1ccc([As](=O)(O)O)cc1 | inactive: -4.37%
17 | N#CCCN(C(=O)COC(=O)C(O)(c1ccccc1)c1ccccc1)c1ccc(F)cc1 | inactive: -2.51%
18 | CCOP1(=S)c2c(C)nn(CCC#N)c2N=C(c2ccc(F)cc2)N1C (centres undefined) | inactive: 28.2%
19 | CN(C(=O)Cc1ccccc1)[C@@H]1CC[C@]2(CCCO2)C[C@H]1N1CCCC1 | inactive: -12.8%
20 | CN(C)C(=O)c1cc([N+](=O)[O-])cc2c1-c1c(cc([N+](=O)[O-])cc1[N+](=O)[O-])C2=O | inactive: 8.68%
21 | O=[N+]([O-])c1ccc2c(c1)nnn2O | inactive: -1.32%
22 | CN(C(=O)Cc1ccc(Cl)c(Cl)c1)[C@H]1CC[C@@]2(CCCO2)C[C@@H]1N1CCCC1 | inactive: -11.2%
23 | O=C(OC1CN2CCC1CC2)c1ccc(Cl)cc1 (centres undefined) | inactive: -1.35%
24 | COc1cc(C(=O)NCC2(N3CCOCC3)CCCCC2)cc(Cl)c1OC(C)C | inactive: -6.64%
25 | O=[As](O)(O)c1cccnc1 | inactive: 3.45%

Row | Structure (SMILES) | inhibition
26 | CS(=O)(=O)c1ccc(Cl)c(NC(=O)COC(=O)C(O)(c2ccccc2)c2ccccc2)c1 | inactive: -11%
27 | O=[As](O)(c1cccc(O)c1)c1cccc(O)c1 | inactive: -23.8%
28 | Cc1cccc(OCC(=O)OC2CN3CCC2CC3)c1 (centres undefined) | inactive: 3.69%
29 | Cc1ccc(NCCc2c([N+](=O)[O-])cc([N+](=O)[O-])cc2[N+](=O)[O-])cc1 | inactive: -0.17%
30 | Nc1cccc2c([As](=O)(O)O)cccc12 | inactive: 170%
31 | CCCOP(=S)(Nc1nc(N)cc(=O)[nH]1)OCCC | inactive: 8.58%
32 | COc1cc(C2NCCC3(OCCO3)C2(C)C)cc(OC)c1OC (centres undefined) | inactive: -16.6%
33 | CCOP(=O)(Nc1cccc2ccccc12)OCC | inactive: -2.35%
34 | Cc1c2c(nc3ccccc13)SC(C(Cl)Cl)C2 (centres undefined) | inactive: 6.81%
35 | O=C(OC1CN2CCC1CC2)C12CC3CC(CC(C3)C1)C2 (centres undefined) | inactive: -10.7%
36 | Cc1cc(=O)[nH]c(N[N+](=O)[O-])n1 | inactive: 17.3%
37 | O=P1(N(CCCl)CCCl)Nc2ccccc2N1 | inactive: 16%
38 | O=P1(N(CCCl)CCCl)OCCCN1CCCl (centres undefined) | inactive: -3.14%
39 | COc1ccc2nc(NP(=O)(c3ccccc3)c3ccccc3)sc2c1 | inactive: -7.06%
40 | COc1cc(I)ccc1[As](=O)(O)O | inactive: -6.43%
41 | O=[N+]([O-])c1cc(Oc2ccc([N+](=O)[O-])cc2C(F)(F)F)cc([N+](=O)[O-])c1 | inactive: 3.25%
42 | COc1ccc(N/C(=N/P(=O)(N2CCOCC2)N2CCOCC2)N2CCOCC2)cc1 | inactive: 18.1%
43 | O=[As](O)(c1ccc(O)cc1)c1ccccc1O | inactive: 7.53%
44 | C[As](=O)(O)c1cccc(C(=O)O)c1 | inactive: -9.1%
45 | COc1cc(C(=O)NCC2(N3CCOCC3)CCCCC2)ccc1OCC(C)C | inactive: -0.29%
46 | O=[N+]([O-])c1ccc(-c2cc([N+](=O)[O-])c(O)c([N+](=O)[O-])c2)cc1 | inactive: 2.89%
47 | Cc1ccc(OP(=O)(Nc2ccc([N+](=O)[O-])cn2)Oc2ccc(C)cc2)cc1 | inactive: 0.63%
48 | Cc1ccc2nc3c(c(C)c2c1)CC(C(Cl)Cl)S3 (centres undefined) | inactive: -9.53%
49 | ClCCSc1nnc(-c2cccnc2)o1 | inactive: 0.85%
50 | CC(C)c1ccc(OP(=O)(Nc2ccccn2)Oc2ccccc2F)cc1 (centres undefined) | inactive: -3.75%

Row | Structure (SMILES) | inhibition
51 | COC(=O)C1(C)COP(=O)(N2CCCCCC2)OC1 (centres undefined) | inactive: -15.9%
52 | CCN(CC)C(=S)SC(NC=O)C(Cl)(Cl)Cl (centres undefined) | inactive: 30.9%
53 | O=C(OC1CN2CCC1CC2)c1cccc2[nH]cnc12 (centres undefined) | inactive: -5.61%
54 | CC(C)NC(=O)NP(=O)(Oc1ccccc1)Oc1ccccc1 | inactive: 4.86%
55 | O=[N+]([O-])c1cc([N+](=O)[O-])c(-c2ccn[nH]2)s1 | inactive: -55%
56 | CCOC(=O)Nc1ccc([As](=O)(O)O)c(O)c1 | inactive: -11.7%
57 | O=C(O)C(O)c1ccc(N(CCCl)CCCl)cc1 (centres undefined) | inactive: 4.02%
58 | CC1CCNP(=O)(N(CCCl)CCCl)O1 (centres undefined) | inactive: -9.66%
59 | COP(=O)(OC)N1CC1c1ccccc1 (centres undefined) | inactive: -1.91%
60 | CCCCOc1ccc(C(=O)NCC2(N3CCCCC3)CCCCC2)cc1OC | inactive: -6.9%
61 | Cc1cc(SC(NC(=O)c2ccccc2)C(Cl)(Cl)Cl)nc(C(C)C)n1 (centres undefined) | inactive: 31.1%
62 | CCOC(=O)Nc1cccc([As](=O)(O)O)c1 | inactive: -13.2%
63 | O=P(Nc1ccccn1)(c1cccc2ccccc12)c1cccc2ccccc12 | inactive: -11.7%
64 | Cc1cc(SC(NC=O)C(Cl)(Cl)Cl)ncn1 (centres undefined) | active: 38.6%
65 | O=[N+]([O-])c1ccc(Nc2ccc(Oc3ccc([N+](=O)[O-])cc3[N+](=O)[O-])cc2)c([N+](=O)[O-])c1 | inactive: -6.17%
66 | COP1(=S)c2c(C)nn(CCC#N)c2N=C(c2ccc(F)cc2)N1C (centres undefined) | inactive: 22.6%
67 | COC(=O)C1(C)COP(=O)(N2CCCC2)OC1 (centres undefined) | inactive: -12.2%
68 | O=C(O)C(=O)c1ccc(N(CCCl)CCCl)cc1 | inactive: -3.67%
69 | O=C(COc1ccccc1)OC1CN2CCC1CC2 (centres undefined) | inactive: -8.57%
70 | O=C(Nc1ccncc1[N+](=O)[O-])c1ccc([N+](=O)[O-])cc1[N+](=O)[O-] | inactive: 1.79%
71 | O=C(OC1CN2CCC1CC2)c1cccc([N+](=O)[O-])c1 (centres undefined) | inactive: 11.8%
72 | CSc1ccc(Nc2c([N+](=O)[O-])cc([N+](=O)[O-])cc2[N+](=O)[O-])cc1 | inactive: 4.32%
73 | CCOC(=O)c1ccc(NC(=O)C(C)(CCl)SC)cc1 (centres undefined) | inactive: 9.14%
74 | CCC(C)N(CC(C)C)C(=S)SC(NC(C)=O)C(Cl)(Cl)Cl (centres undefined) | inactive: 15.8%
